{
  "source": "patent EP0759299B1",
  "about": "“Potentiation of serotonin response” (ELI LILLY AND COMPANY, priority 1995, dated 1997)",
  "test_system": "NE",
  "experiment": "Microdialysis assay of monoamines in hypothalamus of conscious rats: NE",
  "type": "in vivo, Sprague-Dawley rats",
  "settings": "Test 2, 180 min; percent of baseline; pindolol s.c. infusion 50 mg/kg/hr from 120 min; single animal",
  "method": "Sprague-Dawley rats (Harlan or Charles River) weighing 270-300 grams were surgically implanted with microdialysis probes under chloral hydrate/pentobarbital anesthesia (170 and 36 mg/kg i.p. in 30% propylene glycol, 14% ethanol) (Perry and Fuller, Effect of fluoxetine on serotonin and dopamine concentration in rat hypothalamus after administration of fluoxetine plus L-5-hydroxytryptophan, Life Sci., 50, 1683-90 (1992)). A David Kopf stereotaxic instrument was used to implant the probe unilaterally in the hypothalamus at coordinates rostral -1.5 mm, lateral -1.3 mm, and ventral -9.0 mm (Paxinos and Watson, 1986). After a 48 hour recovery period, rats were placed in a large plastic bowl with a mounted liquid swivel system (CMA/120 system for freely moving animals, Bioanalytical Systems, West Lafayette, IN). […]\nThe method used to measure monoamines was as described by Perry and Fuller (1992). […] The electrochemical detector (EG&G, Model 400) for the amine column was set at a potential of 400 mV and a sensitivity of 0.2 nA/V. The data was collected and analyzed with a Hewlett-Packard HP1000 chromatography system which measured peak heights and calculated sample concentrations. Basal levels were measured for at least 90 minutes prior to drug administration.\nExtracellular levels of the amines in microdialysates were calculated by comparing peak heights with those of 50 pmole standards. […]",
  "data": [
    {"smiles": "CC(C)NCC(O)COc1cccc2[nH]ccc12", "note": "(racemic) [pindolol, 4-(2-hydroxy-3-isopropylaminopropoxy)-indole]", "values": [
      {"measurement": "NE (%)", "value": 273.5, "unit": "%"}
    ]}
  ]
}
